Values of other authors, collected in PMC4106900 (Journal of medicinal chemistry, 2012).

Test system: S1R
Details: cited from earlier work

CCCc1ccc2c(c1)sc(=O)n2CCN1CCCCCC1 [compound 9]
S2R/S1R selectivity: > 1000
